Experimental data: PubChem BioAssay AID1987 (The Scripps Research Institute Molecular Screening Center, 2009)
The list shows a part of the results, in another mix than the full data. Some tests of the compounds listed are not included; inactive here does not mean inactive elsewhere. Activity calls are given as the source filed them.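 The calls were made as follows: active = inhibition above the campaign's mean inhibition across all tested compounds plus 3 SD (cut at about 9.5% in these data); inactive = the rest.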

Protein sequences, listed by entry. Tags and fused reporters are not part of them.
UniProt P53041, whole entry: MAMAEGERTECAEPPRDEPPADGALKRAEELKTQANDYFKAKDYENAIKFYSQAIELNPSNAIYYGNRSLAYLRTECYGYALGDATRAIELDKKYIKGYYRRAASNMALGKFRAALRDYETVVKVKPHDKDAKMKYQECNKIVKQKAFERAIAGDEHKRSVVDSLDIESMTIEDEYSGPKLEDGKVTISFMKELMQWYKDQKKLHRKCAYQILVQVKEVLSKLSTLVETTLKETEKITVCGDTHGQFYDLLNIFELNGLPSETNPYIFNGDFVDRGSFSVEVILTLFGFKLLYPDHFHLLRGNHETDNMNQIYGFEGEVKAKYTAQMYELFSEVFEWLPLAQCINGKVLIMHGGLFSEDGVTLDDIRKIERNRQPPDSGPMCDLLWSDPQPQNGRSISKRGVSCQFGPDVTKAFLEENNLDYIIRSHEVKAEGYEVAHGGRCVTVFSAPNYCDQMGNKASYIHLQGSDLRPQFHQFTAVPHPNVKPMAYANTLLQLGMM

target: Serine/threonine-protein phosphatase 5 (Homo sapiens) (UniProt P53041); assay: inhibition of human PP5 catalytic activity – biochemical, fluorescence, primary screen (AID 1987); details: purified PP5c, OMFP substrate fluorescence; at 6.7 µM; active compounds read high;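 also: 0% = DMSO only and 100% = 100 µM cantharidin control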

| Compound | inhibition |
| --- | --- |
| COc1ccc(Br)c(C(=O)NCC2(N3CCCCC3)CCCCC2)c1 | inactive: 0.9% |
| CN(C)c1cccc(C(=O)NCC2(N(C)C)CCCCC2)c1 | inactive: -1.91% |
| CC(C)Oc1ccc(C(=O)NCC2(N(C)C)CCCCC2)cc1 | inactive: 1.13% |
| O=C(OC1CN2CCC1CC2)C(CO)(c1ccccc1)c1ccccc1 (centres undefined) | inactive: -2.66% |
| COc1ccc(Cl)cc1C(=O)NCC1(N(C)C)CCCCC1 | inactive: -0.16% |
| COc1cccc(C(=O)NCC2(N3CCCCC3)CCCCC2)c1 | inactive: -2.08% |
| O=C(NCC1(N2CCCCC2)CCCCC1)c1cccc(Cl)c1 | inactive: 2.46% |
| CN(C)C1(CNC(=O)c2ccc(Br)cc2)CCCCC1 | inactive: 2.85% |
| COc1cc(C(=O)NCC2(N(C)C)CCCCC2)c([N+](=O)[O-])cc1OC | inactive: 0.56% |
| O=C(NCC1(N2CCCCC2)CCCCC1)c1cc(F)c(F)cc1Cl | inactive: 3.28% |
| C=CCN1CCN(CCOC(=O)C(O)(c2ccccc2)c2ccccc2)CC1 | inactive: 0.06% |
| O=C(NCC1(N2CCCCC2)CCCCC1)c1cccc(Br)c1 | inactive: 1.42% |
| CCN1CCCC(OC(=O)C2(O)c3ccccc3C=Cc3ccccc32)C1 (centres undefined) | inactive: 0.71% |
| Cc1cc(C(=O)NCC2(N3CCCCC3)CCCCC2)ccc1[N+](=O)[O-] | inactive: -0.72% |
| COc1ccc(C(=O)NCC2(N(C)C)CCCCC2)cc1 | inactive: 0.84% |
| CN(C)c1ccc(C(=O)NCC2(N(C)C)CCCCC2)cc1 | inactive: -0.46% |
| CN(C)C1CCCC1OC(=O)C(O)(c1ccccc1)c1ccccc1 (centres undefined) | inactive: -2.51% |
| Cc1ccccc1C(=O)NCC1(N2CCCCC2)CCCCC1 | inactive: -0.64% |
| CC(C)N1C(=O)CC2(CCN(CCOC(=O)C(O)(c3ccccc3)c3ccccc3)CC2)C1=O | inactive: 1.71% |
| COc1cc(SC)ccc1C(=O)NCC1(N(C)C)CCCCC1 | inactive: -2.14% |
| CCN(CC)CC(C)C(C)OC(=O)C(O)(c1ccccc1)c1ccccc1 (centres undefined) | inactive: -1.5% |
| Cc1ccc(C(=O)NCC2(N3CCCCC3)CCCCC2)cc1 | inactive: 2.08% |
| O=C(NCC1(N2CCCCC2)CCCCC1)c1cc([N+](=O)[O-])ccc1Cl | inactive: 1.37% |
| CN1[C@@H]2CC[C@H]1CC(OC(=O)C(O)(c1ccccc1)c1ccccc1)C2 (some centres undefined) | inactive: 0.38% |
